Format in all cases: cell-based
For test [1], the system named is HSP27 mRNA. As to the kind of experiment: HSP27 mRNA gene silencing analysis in A431 cells. The source says: (§1) RNA from cells was isolated and analysed according to standard protocols (Biorad). qPCR primers that were used are indicated in Table A10.
The next test deals with human red blood cells. Conditions: read-out: IC50 hemolytic activity. As for the experimental part: Red blood cells (RBCs) were isolated from a buffy coat using a Ficoll gradient. The obtained RBC pellet (˜4-5 ml) was washed 2× with 50 ml DPBS (without Ca^2+/Mg^2+, PAN-Biotech GmbH). Cells were pelleted by centrifugation for 10 min, 800×g at RT. RBC were counted and resuspended at 500.000.000 c/ml in DPBS (without Ca^2+/Mg^2+), based on total cell count.
Saponin dilutions were prepared in DPBS (with Ca^2+/Mg^2+, PAN-Biotech GmbH), at 1.11× final strength. For positive lysis control a 0.02% Triton-X100 solution was prepared in DPBS^+/+. Of all compound solutions 135 μl was dispensed/well in a 96 well V-bottom plate. To this 15 μl RBC suspension was added and mixed shortly (10 sec-600 rpm). The plate was incubated 30 min at RT, with gentle agitation. Afterwards the plate was spun for 10 min at 800×g to pellet the RBC and 100-120 μl supernatant was transferred to a standard 96 wp (96 well-plate).
Saponin dilutions were prepared in DPBS (with Ca^2+/Mg^2+, PAN-Biotech GmbH), at 1.11× final strength. For positive lysis control a 0.02% Triton-X100 solution was prepared in DPBS+/+. Of all compound solutions 135 μl was dispensed/well in a 96 well V-bottom plate. To this 15 μl RBC suspension was added and mixed shortly (10 sec-600 rpm). The plate was incubated 30 min at RT, with gentle agitation. […]

Test [2] concerns HSP27 mRNA. Kind of test: HSP27 mRNA gene silencing analysis in SK-BR-3 cells. Conditions: in the presence of 4000 nM SO1861-Ald-EMCH.
From the text: as §1

pIC50: −log10 of the molar value.

For the substance “cetuximab-HSP27BNA: cetuximab conjugated to the HSP27BNA (DAR1.5 or DAR4)”, the values for the pIC50 with HSP27 mRNA [1] (conjugate alone or + 100 nM SO1861-Ald-EMCH) and with HSP27 mRNA [1] (in the presence of 4000 nM SO1861-Ald-EMCH) were less than 7.00 and 9.30, respectively. As for “cetuximab-SO1861 (DAR4): antibody-SO1861 conjugate”, in the test with human red blood cells, the pIC50 (usually −log10 of the IC50, conventionally taken in molar units) was less than 4.22. With “trastuzumab-HSP27BNA: trastuzumab conjugated to the HSP27BNA (DAR4.4)”, the negative-log IC50 (pIC50) with HSP27 mRNA [2] was 9.30. As for “trastuzumab-SO1861 (DAR4): antibody-SO1861 conjugate”, the pIC50 in the test on human red blood cells is 3.70.

(Values after patent US20230277612A1, “SAPONIN DERIVATIVES FOR USE IN MEDICINE” (priority 2020, published 2023).)
